According to IntAct's records for PubMed 23460739:

B1: Mannose-binding protein C (Homo sapiens), P11226 (parent)
chain: MSLFPSLPLLLLSMVAASYSETVTCEDAQKTCPAVIACSSPGINGFPGKDGRDGTKGEKGEPGQGLRGLQGPPGKLGPPGNPGPSGSPGPKGQKGDPGKSPDGDSSLAASERKALQTEMARIKKWLTFSLGKQVGNKFFLTNGEIMTFEKVKALCVKFQASVATPRNAAENGAIQNLIKEEAFLGITDEKTEGQFVDLTGNRLTYTNWNEGEPNNAGSDEDCVLLLKNGQWNDVPCSTSHLAVCEFPI

Variants of: B1
Conditions: with cr1_human CR1, P17927

Row | Variant | effect of a mutation on the interaction
1 | MSLFPSLPLLLLSMVAASYSETVTCEDAQKTCPAVIACSSPGINGFPGKDGRDGTKGEKGEPGQGLRGLQGPPGALGPPGNPGPSGSPGPKGQKGDPGKSPDGDSSLAASERKALQTEMARIKKWLTFSLGKQVGNKFFLTNGEIMTFEKVKALCVKFQASVATPRNAAENGAIQNLIKEEAFLGITDEKTEGQFVDLTGNRLTYTNWNEGEPNNAGSDEDCVLLLKNGQWNDVPCSTSHLAVCEFPI [K75A] | disrupting interaction strength
2 | MSLFPSLPLLLLSMVAASYSETVTCEDAQKTCPAVIACSSPGINGFPGKDGRDGTKGEKGEPGQGLRGLQGPPGELGPPGNPGPSGSPGPKGQKGDPGKSPDGDSSLAASERKALQTEMARIKKWLTFSLGKQVGNKFFLTNGEIMTFEKVKALCVKFQASVATPRNAAENGAIQNLIKEEAFLGITDEKTEGQFVDLTGNRLTYTNWNEGEPNNAGSDEDCVLLLKNGQWNDVPCSTSHLAVCEFPI [K75E] | disrupting interaction strength
